# Only some compounds are listed: those with a hit (about 2.2% of all), similar ones and a draw of the others.
# A549 tox-1: kills or reduces viability of A549 cells in Nrf2 counter-screen; A549 ARE-Fluc cells, CellTiter-Fluor viability, 18-24 h; Potency, µM (highest dose often 46 µM), without a hit: at the top dose activity change, negative = cytotoxicity, most hits filed as inhibitors; 390,000 compounds, 0.16% hits; note: potency is the fitted concentration of half-maximal effect; % is set by controls: 0 for no effect and ±100 for the full control effect
#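 A549 ARE-Fluc cells in 5% FBS OPTI-MEM, 5000 cells/well, rested 2 h then exposed to compounds in concentration-response for 18-24 h at 37 °C. Viability by CellTiter-Fluor fluorescence (Ex 405/Em 525) after 30 min; luciferase luminescence (BugLite, 15 min, RT) read afterwards.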
# Nrf2 block: Nrf2 pathway inhibition. A549 ARE-Fluc reporter, luciferase luminescence, 18-24 h. Potency, µM (series often up to 46 µM), without a hit: at the top dose activity change, negative = inhibition, hits mostly inhibitors. 360,000 compounds, 2.1% hits; note: potency is the fitted concentration of half-maximal effect; % is set by controls: 0 for no effect and ±100 for the full control effect; nearly all actives have a fitted effect of over 60% in size
#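 Concentration-response testing used A549 ARE_Fluc cells at 5000 cells/well. Following an 18-24 h compound incubation, viability was read by fluorescence (Ex 405/Em 525) and luciferase output by luminescence.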
# Nrf2 activator: Nrf2 pathway activation. AREc32 ARE-luciferase reporter (MCF7-derived line), luminescence, 24 h. Potency, µM (top dose mostly 46.1 µM), for the others: at the highest dose activation, usual class: activators. 410,000 compounds, 0.31% hits; note: potency is the fitted concentration of half-maximal effect; % of control where 0% means no effect; nearly all actives have a fitted effect of over 65% in size
#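 Reporter line AREc32 (ARE-Fluc), seeded overnight in OPTI-MEM with 5% FBS; compound pin-transferred, 24 hr at 37 deg C, 5% CO2; luminescent read-out.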
# B2AR arrestin: recruits beta-arrestin to the human beta2-adrenergic receptor. 330,000 compounds, 0.02% hits. Potency, µM (top dose mostly 46.1 µM), inactives show at the top dose activation, actives largely listed as activators. P07550. beta-arrestin recruitment to beta2AR, cell-based reporter;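 note: potency is the fitted concentration of half-maximal effect; 0% = DMSO controls and full agonism = EC100 isoproterenol or metaproterenol; nearly all actives have a fitted effect of over 65% in size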
# miR-21 FLuc: miR-21 reporter, rising signal. HeLa miR-21 FLuc reporter, luciferase, 48 h. Potency, µM (titrated, usually from 38.3 µM), without a hit: at the top dose reporter change, positive = more light. 340,000 tested, under 10 active. AID 2288; active = well fitted rising curve with a large enough effect; inconclusive = small, poorly fitted or top-dose-only effect; inactive = no such curve, though single readings can be large or run the other way;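 also: % of control where 0% means no effect; miR-21 action dims this reporter so a rising signal means less miR-21 action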
#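 HeLa cells endogenously expressing miR-21, stably carrying CMV-driven firefly luciferase with a downstream miR-21 binding site, 2000 cells/well. Titrations up to approximately 40 uM, 48 hours; luciferase luminescence read.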
# FLuc enzyme inh: firefly luciferase inhibition, Nrf2 hit validation; Potency, µM (doses to about 57.5 µM), inactives show at the top dose activity change, negative = inhibition, hits mostly inhibitors; shares compounds with Nrf2 block; purified firefly luciferase, luminescence inhibition; 1,400 compounds, 4% hits; note: potency is the fitted concentration of half-maximal effect; % is set by controls: 0 for no effect and ±100 for the full control effect; nearly all actives have a fitted effect of over 65% in size
# A549 tox-2: counter-screen for Nrf2 inhibitors: cytotoxicity in A549 ARE cells | 1,400 compounds, 2% hits | A549 ARE-Fluc cells, cytotoxicity counterscreen | Potency, µM (doses to about 46.1 µM), without a hit: at the top dose activity change, negative = cytotoxicity, most hits filed as inhibitors | shares compounds with Nrf2 block;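 note: potency is the fitted concentration of half-maximal effect; cells exposed to compounds for 18 to 24 hours; % is set by controls: 0 for no effect and ±100 for the full control effect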
# ARE-Fluc inh: Nrf2 inhibition confirmed, A549 ARE-luciferase. Potency, µM (doses to about 46.1 µM), inactives show at the top dose activity change, negative = inhibition, hits mostly inhibitors. shares compounds with Nrf2 block. AID 720524. A549 ARE-firefly luciferase reporter, luminescence. 1,400 compounds, 74% hits; note: potency is the fitted concentration of half-maximal effect; % is set by controls: 0 for no effect and ±100 for the full control effect; nearly all actives have a fitted effect of over 65% in size
# Active calls of the source: *; ? = inconclusive; · = no result given; ! = repeats disagree. Unless noted, calls come from the whole dose curve; as a rule, active = well fitted curve in the direction sought with a large enough effect; inconclusive = small, poorly fitted or top-dose-only effect, or another doubt; inactive = no such curve, though single readings can be large; an effect the other way counts as inactive or inconclusive.
SMILES,A549 tox-1,Nrf2 block,Nrf2 activator,B2AR arrestin,miR-21 FLuc,FLuc enzyme inh,A549 tox-2,ARE-Fluc inh
COc1ccc(-n2c(-c3ccc(Br)cc3)c[n+]3c2CCC3)cc1,-13%,4.6µM*,-1%,0%,29%,1%,-1%,-36%
CC1(C)CC(=O)C=C(N2CCN(C3=CC(=O)CC(C)(C)C3)CC2)C1,·,·,·,0%,2%,·,·,·
CC1(C)CC(N2CCCC2)=CC(=[N+]2CCCC2)C1,-15%,2.1µM*,-1%,-1%,?,0%,-13%,5.2µM*
CC1(C)CC(N2CCCC2)=CC(=[N+]2CCCCC2)C1,-14%,4.1µM*,0%,0%,?,1%,-5%,5.2µM*
Nc1nc(-c2ccco2)nn1C(=O)c1ccc(Cl)cc1,-7%,7.3µM*,-1%,0%,-8%,1%,0%,4.1µM*
O=C(Cn1c(=O)n(Cc2ccc(F)cc2)c(=O)c2sc3ccccc3c21)NCc1ccccc1Cl,0%,4%,-1%,·,-4%,·,·,·
CCOC(=O)c1cc(C)n(CC2CCC(C(=O)Nc3ccc(Cl)cc3)CC2)c1C (centres undefined),?,8.2µM*,0%,·,?,-12%,-24%,13µM*
Cn1nccc1C(=O)Nc1cc(Cl)ccc1Cl,1%,2.9µM*,3%,·,·,-15%,-1%,5.8µM*
C[n+]1ccccc1COc1ccc(C(C)(C)C)cc1,?,2.3µM*,0%,0%,15%,-9%,-11%,5.2µM*
CC(C)(C)c1ccc(OCc2nc3ccccc3n2CCOc2ccccc2)cc1,10%,19%,1%,·,-19%,·,·,·
COc1cc2c(NC3CCN(C(C)C)CC3)nc(N3CCCN(C)CC3)nc2cc1OCCCN(C)C,·,·,·,·,·,-1%,?,1.6µM*
COc1cc2[nH]c(=S)nc(NC3CCCCCC3)c2cc1OC,2%,1%,9%,0%,-20%,·,·,·
COc1ccc(Nc2ncnc3c2nc2n3CCCC2)cc1Cl,-2%,?,0%,·,-31%,·,·,·
O=C(NCc1cccs1)c1ccc2ccccc2n1,-5%,?,2%,1%,-16%,·,·,·
C=C(c1ccc2ccccc2n1)c1cccs1,·,·,·,·,·,-6%,-30%,?
COc1ccc(CNC(=O)c2cccc(N3CCCS3(=O)=O)c2)cc1OC,-10%,2.6µM*,-1%,·,26%,-1%,-1%,?
CCN(CC)C(=O)c1ccc2nc3ccccc3nc2c1,?,1.5µM*,2%,2%,-52%,?,?,·
CC(C)Oc1cccc(C(=O)C2CCCN(Cc3cnc(N4CCOCC4)s3)C2)c1 (centres undefined),-18%,9.2µM*,4%,0%,22%,2%,-10%,·
COc1ccc(C(=O)C2CCCN(Cc3cnc(N4CCOCC4)s3)C2)cc1F (centres undefined),0%,?,3%,0%,21%,·,·,·
COc1ccc(C(=O)C2CCCN(Cc3cnc(N4CCOCC4)s3)C2)c(OC)c1 (centres undefined),?,9.2µM*,4%,0%,16%,2%,-8%,-12%

# Next section, starting with the last 2 of the part before.
SMILES,A549 tox-1,Nrf2 block,Nrf2 activator,B2AR arrestin,miR-21 FLuc,FLuc enzyme inh,A549 tox-2,ARE-Fluc inh
COc1ccc(C(=O)C2CCCN(Cc3cnc(N4CCOCC4)s3)C2)cc1F (centres undefined),0%,?,3%,0%,21%,·,·,·
COc1ccc(C(=O)C2CCCN(Cc3cnc(N4CCOCC4)s3)C2)c(OC)c1 (centres undefined),?,9.2µM*,4%,0%,16%,2%,-8%,-12%
Cn1c(=O)[nH]c2cc(-c3noc(-c4ccc(F)cc4)n3)ccc21,-2%,·,1%,·,-59%,·,·,·
O=c1c(N2CCN(c3cccc(Cl)c3)CC2)csc2ccc(Cl)cc12,-3%,·,4%,·,22%,·,·,·
Cc1sc2ncnc(N3CCN(S(=O)(=O)c4ccc(C(C)(C)C)cc4)CC3)c2c1C,?,?,-1%,0%,·,·,·,·
Cc1ccc(S(=O)(=O)N2CCN(C(=O)C3CCN(c4ncnc5sc(C)c(C)c45)CC3)CC2)c(C)c1,-10%,8.2µM*,0%,·,·,3%,-14%,12µM*
COc1ccc(C(=O)C2CCCN(S(=O)(=O)c3ccc(C(C)=O)cc3)C2)c(C)c1 (centres undefined),-14%,8.2µM*,0%,0%,25%,5%,-2%,·
CCOC(=O)C1CCCN(S(=O)(=O)c2ccc(S(=O)(=O)N3CCCC3)cc2)C1 (centres undefined),-15%,8.2µM*,-1%,0%,·,3%,-3%,?
CCS(=O)(=O)N1CCCC(C(=O)c2ccc(OC)cc2C)C1 (centres undefined),-9%,-14%,-1%,-1%,-2%,·,·,·
COc1ccc(C2CC(c3ccccc3)Oc3cc(C)cc(C)c32)cc1 (centres undefined),23%,15%,·,·,·,·,·,·
O=C(NCCc1ccccc1)c1sc2ncccc2c1-n1cccc1,0%,·,16%,·,-19%,·,·,·
CC(=O)c1cccc(NS(=O)(=O)c2c(C)noc2C)c1,-5%,-7%,0%,0%,-3%,·,·,·
CC(=O)c1cccc(NS(=O)(=O)c2cc(-c3onc(C)c3C)ccc2C)c1,-16%,8.2µM*,5%,·,20%,3%,-13%,5.8µM*
O=C(Nc1ccc(Cl)cc1)Nc1ccc(N2CCCC2)c(S(=O)(=O)Nc2ccccc2Cl)c1,?,3.3µM*,2%,-1%,10%,0%,?,6.5µM*
COc1ccccc1NS(=O)(=O)c1cc(NC(=O)Nc2cccc(C)c2)ccc1N1CCCCC1,0%,4%,2%,0%,23%,·,·,·
CC(C)n1c(CN(C)Cc2ccccc2)nc2c1c(=O)n(C)c(=O)n2C,-17%,0.46µM*,0%,-1%,19%,2%,-3%,4.1µM*
CC(=O)C(C)n1c(CN(C)Cc2ccccc2)nc2c1c(=O)n(C)c(=O)n2C (centres undefined),-2%,?,4%,-1%,0%,·,·,·
CSc1ccc(C2c3[nH]c4ccccc4c3CCN2C(=O)CCC2CCCC2)cc1 (centres undefined),7%,·,0%,·,-8%,·,·,·
Cc1ccc(N(CC2=NCCN2)c2cccc(O)c2)cc1,?,7.3µM*!,0%,-1%,-5%,-1%,-7%,10µM*
Cc1ccc(CN2C(=O)CN(C3CCCCCC3)C(=O)C2c2ccc(F)cc2)cc1 (centres undefined),19%,·,0%,·,-7%,·,·,·
Cc1cc2[nH]c3c(c[n+](C)c4ccccc34)c2cc1C,?,5.8µM*,-2%,0%,?,1%,7%,7.3µM*
CC(=O)c1c(C)[nH]c(C(=O)OCC(=O)Nc2ccccc2Cl)c1C,-12%,5.8µM*,5%,0%,7%,-24%,-4%,5.8µM*

# Fetched by compound from the list above (3):
SMILES,A549 tox-1,Nrf2 block,Nrf2 activator,B2AR arrestin,miR-21 FLuc,FLuc enzyme inh,A549 tox-2,ARE-Fluc inh
Cn1c(=O)[nH]c2cc(-c3noc(-c4ccc(F)cc4)n3)ccc21,-2%,·,1%,·,-59%,·,·,·
CCOC(=O)C1CCCN(S(=O)(=O)c2ccc(S(=O)(=O)N3CCCC3)cc2)C1 (centres undefined),-15%,8.2µM*,-1%,0%,·,3%,-3%,?
CC(=O)c1c(C)[nH]c(C(=O)OCC(=O)Nc2ccccc2Cl)c1C,-12%,5.8µM*,5%,0%,7%,-24%,-4%,5.8µM*

# Screening data as filed in PubChem BioAssay.
